Data published in BindingDB's records for US11129827.

Sequences of proteins named here, by UniProt entry; tags and fusion partners are left off.
UniProt Q99685, whole entry, looked up: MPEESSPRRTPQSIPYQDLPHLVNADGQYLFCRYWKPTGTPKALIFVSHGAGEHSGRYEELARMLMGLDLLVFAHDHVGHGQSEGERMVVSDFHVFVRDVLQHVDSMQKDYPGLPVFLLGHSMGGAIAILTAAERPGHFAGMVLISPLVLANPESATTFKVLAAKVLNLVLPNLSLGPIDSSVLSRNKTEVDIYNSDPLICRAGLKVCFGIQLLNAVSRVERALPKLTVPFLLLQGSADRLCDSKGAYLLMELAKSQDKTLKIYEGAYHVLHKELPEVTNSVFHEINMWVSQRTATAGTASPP
UniProt O00519, whole entry, looked up: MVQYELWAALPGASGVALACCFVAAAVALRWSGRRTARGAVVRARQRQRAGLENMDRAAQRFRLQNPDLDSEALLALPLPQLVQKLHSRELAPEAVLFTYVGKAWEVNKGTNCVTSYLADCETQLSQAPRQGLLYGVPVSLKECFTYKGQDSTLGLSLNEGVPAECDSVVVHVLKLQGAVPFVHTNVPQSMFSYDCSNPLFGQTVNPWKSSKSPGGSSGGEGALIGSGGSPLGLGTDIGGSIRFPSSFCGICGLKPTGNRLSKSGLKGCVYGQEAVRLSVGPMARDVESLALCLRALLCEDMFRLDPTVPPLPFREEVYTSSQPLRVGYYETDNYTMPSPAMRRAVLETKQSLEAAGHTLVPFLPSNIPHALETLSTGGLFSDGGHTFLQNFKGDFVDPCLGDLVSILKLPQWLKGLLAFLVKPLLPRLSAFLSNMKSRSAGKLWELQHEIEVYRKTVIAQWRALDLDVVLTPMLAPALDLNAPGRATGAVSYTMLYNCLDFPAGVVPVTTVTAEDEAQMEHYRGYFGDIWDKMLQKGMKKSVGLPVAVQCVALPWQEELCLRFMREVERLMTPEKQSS

target: Monoglyceride lipase (Homo sapiens, UniProt Q99685); assay: In Vitro Competitive Activity-Based Protein Assay
Procedure: (§1) Proteomes (mouse brain membrane fraction or cell lysates for mouse assays; human prefrontal cortex or cell membrane fractions for human assays) (50 μL, 1.0 mg/mL total protein concentration) were preincubated with varying concentrations of inhibitors at 37° C. After 30 min, FP Rh or HT-01 (1.0 μL, 50 μM in DM

| SMILES | IC50 [µM] |
| --- | --- |
| Cc1c(F)cncc1OC(=O)N1CCN(Cc2cc(Cl)ccc2C(F)(F)F)CC1 | > 51 |
| C[C@@H]1CN(Cc2cccc(OC(F)(F)F)c2)CCN1C(=O)Oc1cncc(F)c1 | > 51 |
| NC(=O)c1cc(Cl)cc(CN2CCN(C(=O)Oc3cncc(C(N)=O)c3)CC2)c1 | > 51 |
| CC(C)Oc1cc(CN2CCN(C(=O)Oc3cncc(N)c3)[C@H](C)C2)ccc1Cl | > 51 |
| C[C@@H]1CN(Cc2cnccc2C(F)(F)F)CCN1C(=O)Oc1cncc(C#N)c1 | > 51 |

target: Fatty-acid amide hydrolase 1 (Homo sapiens, UniProt O00519); assay: In Vitro Competitive Activity-Based Protein Assay
Procedure: as §1

| SMILES | IC50 [µM] |
| --- | --- |
| C[C@@H]1CN(Cc2cccc(C(F)(F)F)c2)CCN1C(=O)Oc1cncc(C(N)=O)c1 | < 1 |
